Biological target: MC4 (Homo sapiens, UniProt P32245)
Conditions: read-out: MC4 Ki

Amino acid sequences for entries named in this document (tags omitted).
UniProt P32245, whole entry: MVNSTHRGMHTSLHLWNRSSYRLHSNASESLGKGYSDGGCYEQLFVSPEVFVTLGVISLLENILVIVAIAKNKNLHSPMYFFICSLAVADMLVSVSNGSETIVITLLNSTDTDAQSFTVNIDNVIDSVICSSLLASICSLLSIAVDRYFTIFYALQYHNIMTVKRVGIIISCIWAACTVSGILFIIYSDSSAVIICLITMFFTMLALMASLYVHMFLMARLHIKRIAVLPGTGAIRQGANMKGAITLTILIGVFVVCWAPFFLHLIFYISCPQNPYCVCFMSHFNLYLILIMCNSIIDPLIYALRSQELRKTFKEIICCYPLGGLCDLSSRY

| Compound | Ki [pM] |
| --- | --- |
| CC(=O)N[C@H]1CSSC[C@@H](C(N)=O)NC(=O)[C@H](Cc2c[nH]c3ccccc23)NC(=O)[C@H](CCCNC(=N)N)NC(=O)[C@@H](Cc2ccccc2)NC(=O)[C@H](Cc2c[nH]cn2)NC1=O [Compound No. 1, Ac-cyclo[Cys-His-D-Phe-Arg-Trp-Cys]-NH2] | 128000 |
| CC(=O)N[C@@H](Cc1ccc(O)cc1)C(=O)N[C@@H](CCCNC(=N)N)C(=O)N[C@H]1CSSC[C@@H](C(N)=O)NC(=O)[C@H](Cc2c[nH]c3ccccc23)NC(=O)[C@H](CCCNC(=N)N)NC(=O)[C@@H](Cc2ccccc2)NC(=O)[C@H](Cc2c[nH]cn2)NC(=O)[C@H](CCCNC(=N)N)NC1=O [Compound No. 4, Ac-Tyr-Arg-cyclo[Cys-Arg-His-D-Phe-Arg-Trp-Cys]-NH2] | 230 |
| CC(=O)N[C@@H](Cc1ccc(O)cc1)C(=O)N[C@@H](CCCNC(=N)N)C(=O)N[C@H]1CSSC[C@@H](C(N)=O)NC(=O)[C@H](Cc2c[nH]c3ccccc23)NC(=O)[C@H](CCCNC(=N)N)NC(=O)[C@@H](Cc2ccccc2)NC(=O)[C@H](Cc2c[nH]cn2)NC(=O)[C@H](CC(N)=O)NC1=O [Compound No. 5, Ac-Tyr-Arg-cyclo[Cys-Asn-His-D-Phe-Arg-Trp-Cys]-NH2] | 420 |
| CC(=O)N[C@H]1CSSC[C@@H](C(N)=O)NC(=O)[C@H](Cc2c[nH]c3ccccc23)NC(=O)[C@H](CCCNC(=N)N)NC(=O)[C@@H](Cc2ccccc2)NC(=O)[C@H](Cc2c[nH]cn2)NC(=O)[C@H](CC(=O)O)NC1=O [Compound No. 6, Ac-cyclo[Cys-Asp-His-D-Phe-Arg-Trp-Cys]-NH2] | 2150 |
| CC(=O)N[C@@H](Cc1ccc(O)cc1)C(=O)N[C@@H](CCCNC(=N)N)C(=O)N[C@H]1CSSC[C@@H](C(N)=O)NC(=O)[C@H](Cc2c[nH]c3ccccc23)NC(=O)[C@H](CCCNC(=N)N)NC(=O)[C@@H](Cc2ccccc2)NC(=O)[C@H](Cc2c[nH]cn2)NC(=O)[C@H](CC(=O)O)NC1=O [Compound No. 7, Ac-Tyr-Arg-cyclo[Cys-Asp-His-D-Phe-Arg-Trp-Cys]-NH2] | 820 |
| CC(=O)N[C@H]1CSSC[C@@H](C(N)=O)NC(=O)[C@H](Cc2c[nH]c3ccccc23)NC(=O)[C@H](CCCNC(=N)N)NC(=O)[C@@H](Cc2ccccc2)NC(=O)[C@H](Cc2c[nH]cn2)NC(=O)[C@H](CCC(N)=O)NC1=O [Compound No. 8, Ac-cyclo[Cys-Gln-His-D-Phe-Arg-Trp-Cys]-NH2] | 1430 |
| CC(=O)N[C@@H](Cc1ccc(O)cc1)C(=O)N[C@@H](CCCNC(=N)N)C(=O)N[C@H]1CSSC[C@@H](C(=O)O)NC(=O)[C@H](Cc2c[nH]c3ccccc23)NC(=O)[C@H](CCCNC(=N)N)NC(=O)[C@@H](Cc2ccccc2)NC(=O)[C@H](Cc2c[nH]cn2)NC(=O)[C@H](CCC(N)=O)NC1=O [Compound No. 9, Ac-Tyr-Arg-cyclo[Cys-Gln-His-D-Phe-Arg-Trp-Cys]-OH] | 2390 |
| COC(=O)[C@@H]1CSSC[C@H](NC(=O)[C@H](CCCNC(=N)N)NC(=O)[C@H](Cc2ccc(O)cc2)NC(C)=O)C(=O)N[C@@H](CCC(N)=O)C(=O)N[C@@H](Cc2c[nH]cn2)C(=O)N[C@H](Cc2ccccc2)C(=O)N[C@@H](CCCNC(=N)N)C(=O)N[C@@H](Cc2c[nH]c3ccccc23)C(=O)N1 [Compound No. 10, Ac-Tyr-Arg-cyclo[Cys-Gln-His-D-Phe-Arg-Trp-Cys]-OMe] | 100 |
| N=C(N)NCCC[C@H](NC(=O)[C@@H](N)Cc1ccc(O)cc1)C(=O)N[C@H]1CSSC[C@@H](C(N)=O)NC(=O)[C@H](Cc2c[nH]c3ccccc23)NC(=O)[C@H](CCCNC(=N)N)NC(=O)[C@@H](Cc2ccccc2)NC(=O)[C@H](Cc2c[nH]cn2)NC(=O)CNC1=O [Compound No. 11, Tyr-Arg-cyclo[Cys-Gly-His-D-Phe-Arg-Trp-Cys]-NH2] | 1260 |
| CC(=O)N[C@@H](Cc1ccc(O)cc1)C(=O)N[C@@H](CCCNC(=N)N)C(=O)N[C@H]1CSSC[C@@H](C(N)=O)NC(=O)[C@H](Cc2c[nH]c3ccccc23)NC(=O)[C@H](CCCNC(=N)N)NC(=O)[C@@H](Cc2ccccc2)NC(=O)[C@H](Cc2c[nH]cn2)NC(=O)CNC1=O [Compound No. 12, Ac-Tyr-Arg-cyclo[Cys-Gly-His-D-Phe-Arg-Trp-Cys]-NH2] | 1100 |
| CC(=O)N[C@@H](Cc1ccc(O)cc1)C(=O)N[C@@H](CCCNC(=N)N)C(=O)N[C@H]1CSSC[C@@H](C(N)=O)NC(=O)[C@H](Cc2c[nH]c3ccccc23)NC(=O)[C@H](CCCNC(=N)N)NC(=O)[C@@H](Cc2ccccc2)NC(=O)[C@H](Cc2c[nH]cn2)NC(=O)[C@H](Cc2c[nH]cn2)NC1=O [Compound No. 13, Ac-Tyr-Arg-cyclo[Cys-His-His-D-Phe-Arg-Trp-Cys]-NH2] | 340 |
| CC(=O)N[C@H]1CSSC[C@@H](C(N)=O)NC(=O)[C@H](Cc2c[nH]c3ccccc23)NC(=O)[C@H](CCCNC(=N)N)NC(=O)[C@@H](Cc2ccccc2)NC(=O)[C@H](Cc2c[nH]cn2)NC(=O)[C@H](CC(C)C)NC1=O [Compound No. 15, Ac-cyclo[Cys-Leu-His-D-Phe-Arg-Trp-Cys]-NH2] | 670 |
| CC(=O)N[C@H]1CSSC[C@@H](C(N)=O)NC(=O)[C@H](Cc2c[nH]c3ccccc23)NC(=O)[C@H](CCCNC(=N)N)NC(=O)[C@@H](Cc2ccccc2)NC(=O)[C@H](Cc2c[nH]cn2)NC(=O)[C@H](CCCCN)NC1=O [Compound No. 16, Ac-cyclo[Cys-Lys-His-D-Phe-Arg-Trp-Cys]-NH2] | 830 |
| CC(=O)N[C@@H](Cc1ccc(O)cc1)C(=O)N[C@@H](CCCNC(=N)N)C(=O)N[C@H]1CSSC[C@@H](C(N)=O)NC(=O)[C@H](Cc2c[nH]c3ccccc23)NC(=O)[C@H](CCCNC(=N)N)NC(=O)[C@@H](Cc2ccccc2)NC(=O)[C@H](Cc2c[nH]cn2)NC(=O)[C@H](Cc2ccccc2)NC1=O [Compound No. 19, Ac-Tyr-Arg-cyclo[Cys-Phe-His-D-Phe-Arg-Trp-Cys]-NH2] | 530 |
| CC(=O)N[C@@H](Cc1ccc(O)cc1)C(=O)N[C@@H](CCCNC(=N)N)C(=O)N[C@H]1CSSC[C@@H](C(N)=O)NC(=O)[C@H](Cc2c[nH]c3ccccc23)NC(=O)[C@H](CCCNC(=N)N)NC(=O)[C@@H](Cc2ccccc2)NC(=O)[C@H](Cc2c[nH]cn2)NC(=O)[C@@H]2CCCN2C1=O [Compound No. 20, Ac-Tyr-Arg-cyclo[Cys-Pro-His-D-Phe-Arg-Trp-Cys]-NH2] | 480 |
| CC(=O)N[C@@H](Cc1ccc(O)cc1)C(=O)N[C@@H](CCCNC(=N)N)C(=O)N[C@H]1CSSC[C@@H](C(N)=O)NC(=O)[C@H](Cc2c[nH]c3ccccc23)NC(=O)[C@H](CCCNC(=N)N)NC(=O)[C@@H](Cc2ccccc2)NC(=O)[C@H](Cc2c[nH]cn2)NC(=O)[C@H](CO)NC1=O [Compound No. 21, Ac-Tyr-Arg-cyclo[Cys-Ser-His-D-Phe-Arg-Trp-Cys]-NH2] | 220 |
| CC(=O)N[C@@H](Cc1ccc(O)cc1)C(=O)N[C@@H](CCCNC(=N)N)C(=O)N[C@H]1CSSC[C@@H](C(N)=O)NC(=O)[C@H](Cc2c[nH]c3ccccc23)NC(=O)[C@H](CCCNC(=N)N)NC(=O)[C@@H](Cc2ccccc2)NC(=O)[C@H](Cc2c[nH]cn2)NC(=O)[C@H]([C@@H](C)O)NC1=O [Compound No. 22, Ac-Tyr-Arg-cyclo[Cys-Thr-His-D-Phe-Arg-Trp-Cys]-NH2] | 270 |
| CC(=O)N[C@@H](Cc1ccc(O)cc1)C(=O)N[C@@H](CCCNC(=N)N)C(=O)N[C@H]1CSSC[C@@H](C(N)=O)NC(=O)[C@H](Cc2c[nH]c3ccccc23)NC(=O)[C@H](CCCNC(=N)N)NC(=O)[C@@H](Cc2ccccc2)NC(=O)[C@H](Cc2c[nH]cn2)NC(=O)[C@H](Cc2ccc(O)cc2)NC1=O [Compound No. 24, Ac-Tyr-Arg-cyclo[Cys-Tyr-His-D-Phe-Arg-Trp-Cys]-NH2] | 440 |
| CC(=O)N[C@@H](CCCNC(=N)N)C(=O)N[C@H]1CSSC[C@@H](C(N)=O)NC(=O)[C@H](Cc2c[nH]c3ccccc23)NC(=O)[C@H](CCCNC(=N)N)NC(=O)[C@@H](Cc2ccccc2)NC(=O)[C@H](Cc2c[nH]cn2)NC(=O)[C@H](CS(=O)(=O)O)NC1=O [Compound No. 26, Ac-Arg-cyclo[Cys-Cya-His-D-Phe-Arg-Trp-Cys]-NH2] | 710 |
| CC(=O)N[C@H](CCCNC(=N)N)C(=O)N[C@H]1CSSC[C@@H](C(N)=O)NC(=O)[C@H](Cc2c[nH]c3ccccc23)NC(=O)[C@H](CCCNC(=N)N)NC(=O)[C@@H](Cc2ccccc2)NC(=O)[C@H](Cc2c[nH]cn2)NC(=O)[C@H](CS(=O)(=O)O)NC1=O [Compound No. 27, Ac-D-Arg-cyclo[Cys-Cya-His-D-Phe-Arg-Trp-Cys]-NH2] | 1050 |
| CC(=O)N[C@@H](Cc1ccc(O)cc1)C(=O)N[C@@H](CCCNC(=N)N)C(=O)N[C@H]1CSSC[C@@H](C(N)=O)NC(=O)[C@H](Cc2c[nH]c3ccccc23)NC(=O)[C@H](CCCNC(=N)N)NC(=O)[C@@H](Cc2ccccc2)NC(=O)[C@H](Cc2c[nH]cn2)NC(=O)[C@H](CS(=O)(=O)O)NC1=O [Compound No. 28, Ac-Tyr-Arg-cyclo[Cys-Cya-His-D-Phe-Arg-Trp-Cys]-NH2] | 1180 |
| CC(=O)N[C@H]1CSSC[C@@H](C(=O)N[C@@H](CCCCN)C(=O)N2CCC[C@H]2C(N)=O)NC(=O)[C@H](Cc2c[nH]c3ccccc23)NC(=O)[C@H](CCCNC(=N)N)NC(=O)[C@@H](Cc2ccccc2)NC(=O)[C@H](Cc2c[nH]cn2)NC(=O)[C@H](CCC(=O)O)NC1=O [Compound No. 35, Ac-cyclo[Cys-Glu-His-D-Phe-Arg-Trp-Cys]-Lys-Pro-NH2] | 1030 |
| CC(=O)N[C@H]1CSSC[C@@H](C(=O)N[C@@H](CO)C(=O)N2CCC[C@H]2C(N)=O)NC(=O)[C@H](Cc2c[nH]c3ccccc23)NC(=O)[C@H](CCCNC(=N)N)NC(=O)[C@@H](Cc2ccccc2)NC(=O)[C@H](Cc2c[nH]cn2)NC(=O)[C@H](CCC(=O)O)NC1=O [Compound No. 36, Ac-cyclo[Cys-Glu-His-D-Phe-Arg-Trp-Cys]-Ser-Pro-NH2] | 1660 |
| N=C(N)NCCC[C@@H]1NC(=O)[C@@H](Cc2ccccc2)NC(=O)[C@H](Cc2c[nH]cn2)NC(=O)[C@H](CCC(=O)O)NC(=O)[C@@H](NC(=O)[C@@H](N)CCCNC(=N)N)CSSC[C@@H](C(=O)O)NC(=O)[C@H](Cc2c[nH]c3ccccc23)NC1=O [Compound No. 45, Arg-cyclo[Cys-Glu-His-D-Phe-Arg-Trp-Cys]-OH] | 3030 |
| N=C(N)NCCC[C@@H](N)C(=O)N[C@H]1CSSC[C@@H](C(N)=O)NC(=O)[C@H](Cc2c[nH]c3ccccc23)NC(=O)[C@H](CCCNC(=N)N)NC(=O)[C@@H](Cc2ccccc2)NC(=O)[C@H](Cc2c[nH]cn2)NC(=O)[C@H](CCC(=O)O)NC1=O [Compound No. 46, D-Arg-cyclo[Cys-Glu-His-D-Phe-Arg-Trp-Cys]-NH2] | 730 |

— patent publication US20070105759A1 (priority 2003, published 2007)
